PubChem BioAssay AID529 (NMMLSC, 2006)
The campaign covered roughly 24,000 compounds. About 85 (0.4%) showed an effect of 50% or more. Listed are the inconclusive results; actives and inactives stand elsewhere.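 Rule for the calls: active = inhibition above 50%; inconclusive = compound itself fluorescent, judged against control cell fluorescence; inactive = the rest.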

Chains of the proteins cited; added tags and fusions are not shown.
UniProt P13612, whole entry, looked up: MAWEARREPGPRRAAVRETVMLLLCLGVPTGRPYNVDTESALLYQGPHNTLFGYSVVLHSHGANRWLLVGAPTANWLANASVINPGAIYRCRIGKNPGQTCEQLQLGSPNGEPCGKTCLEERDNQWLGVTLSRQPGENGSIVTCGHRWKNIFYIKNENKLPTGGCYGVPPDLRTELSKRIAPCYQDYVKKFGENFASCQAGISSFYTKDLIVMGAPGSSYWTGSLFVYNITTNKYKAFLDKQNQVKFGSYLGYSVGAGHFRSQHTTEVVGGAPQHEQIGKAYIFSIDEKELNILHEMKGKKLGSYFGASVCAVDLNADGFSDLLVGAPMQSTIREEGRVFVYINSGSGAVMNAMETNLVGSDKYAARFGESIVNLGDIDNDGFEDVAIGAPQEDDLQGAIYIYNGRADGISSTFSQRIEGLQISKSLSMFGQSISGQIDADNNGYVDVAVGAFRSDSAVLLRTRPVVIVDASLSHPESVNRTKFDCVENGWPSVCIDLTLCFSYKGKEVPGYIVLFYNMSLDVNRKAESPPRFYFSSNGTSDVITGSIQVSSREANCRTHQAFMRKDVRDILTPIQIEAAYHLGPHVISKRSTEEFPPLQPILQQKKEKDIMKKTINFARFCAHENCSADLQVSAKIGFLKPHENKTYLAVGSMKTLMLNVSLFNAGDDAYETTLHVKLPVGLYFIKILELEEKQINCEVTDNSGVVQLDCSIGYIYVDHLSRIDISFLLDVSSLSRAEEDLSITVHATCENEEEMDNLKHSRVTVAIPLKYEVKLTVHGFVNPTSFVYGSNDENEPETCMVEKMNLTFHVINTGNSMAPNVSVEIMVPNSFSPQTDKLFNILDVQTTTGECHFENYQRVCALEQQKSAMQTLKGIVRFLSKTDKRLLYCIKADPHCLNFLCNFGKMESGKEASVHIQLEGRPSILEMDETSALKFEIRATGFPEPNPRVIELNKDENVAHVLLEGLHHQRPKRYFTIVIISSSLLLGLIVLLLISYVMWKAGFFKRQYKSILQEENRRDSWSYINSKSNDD

The compounds below were run against Integrin alpha-4 (Homo sapiens) (UniProt P13612) (assay: inhibitors of LDV-FITC binding to Mn2+-activated VLA-4, primary screen, Jurkat cells (AID 529)). Conditions: LDV-FITC binding with Mn2+, flow cytometry.
For CCc1nc2c(n1)c1c(non1O)c1c2no[n+]1[O-], the outcome was “inconclusive”.
